Test results taken from patent EP4541796A1, “EXATECAN DERIVATIVES AND USE THEREOF” (Hangzhou Adcoris Biopharma Co., Ltd, priority 2022, dated 2024).

System: esophageal cancer cells OE33
Assay: In vitro inhibitory activity of ADC, CCK-8 cell growth assay
Format: cell-based, Human
Details: Inhibitory activity against OE33, 6 days incubation
Description: Human esophageal cancer cells OE33, lung cancer cells NCI-H1975 and breast cancer cells MDA-MB-231, which were used for activity testing, were cultured to the exponential growth phase in RPMI1640 (Cellmax), RPMI1640 (Cellmax) and DMEM (Cellmax) medium containing 10% fetal bovine serum (Cellmax), respectively. After trypsin digestion, the supernatant was centrifuged and discarded, and the cells were diluted with medium to 3×10^4cells/mL, 0.5×10^4cells/mL and 1.5×10^4cells/mL, respectively, and then added into 96-well cell culture plates at 100 µL per well, and returned to incubate overnight in a 37°C incubator with 5% CO2. […] After the addition, the plates were returned to the 37°C incubator with 5% CO2 to continue incubation for 6 days. After incubation, the cell culture plates were removed, and the culture medium was aspirated using a pipette. Then, 100µL of culture medium containing 10% CCK-8 was added to each well, and the plates were incubated at 37°C for 3 hours. After incubation, the plates were removed, kept in the dark, and placed in ELISA plate. Absorbance was measured at 630nm as the reference wavelength and 450nm as the test wavelength. The IC50 values (Tables 1 and 3) were calculated using the four-parameter logistic regression method in GraphPad, based on the absorbance values.

“DS-8201a: antibody-drug conjugate formed with exatecan hydroxyethylamide derivative (DXd) as the toxin and trastuzumab (Herceptin); positive control drug [reference compound]” showed an IC50 of 50 to 100 nM.
